Earlier results on one compound are cited in PMC11505911, “Design and Synthesis of Small Molecule Probes of MDA-9/Syntenin” (Biomolecules, 2024).

Chains of the proteins cited; added tags and fusions are not shown.
UniProt O00560, whole entry: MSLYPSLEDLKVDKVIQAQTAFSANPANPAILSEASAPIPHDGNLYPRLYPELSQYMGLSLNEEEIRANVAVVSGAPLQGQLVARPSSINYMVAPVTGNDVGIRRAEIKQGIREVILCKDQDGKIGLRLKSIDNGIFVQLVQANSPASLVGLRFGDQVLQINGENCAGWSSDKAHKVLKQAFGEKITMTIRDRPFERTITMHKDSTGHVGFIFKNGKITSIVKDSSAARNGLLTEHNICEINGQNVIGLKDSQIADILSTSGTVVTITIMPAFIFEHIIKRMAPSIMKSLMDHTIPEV

Structures are written as SMILES.

This data set has as its target MDA-9/Syntenin (Homo sapiens, UniProt O00560). Particulars: cited from earlier work.

For orientation: Kd means the constant that tells how readily two partners part at equilibrium. On to `CC(=O)c1ccc(F)c(-c2ccc(C[C@@H](C(=O)N[C@@H](C)C(=O)O)N3Cc4cc(Br)ccc4C3=O)cc2)c1`, for which the “potency (MDA-9/Syntenin inhibitor)” value is 0.4 µM. In addition, the dissociation constant (Kd) (read-out: MDA-9 KD, binding domain PDZ1) is 0.4 µM.
